# Measured values taken from patent US20200317813A1, “TREATMENT AND DIAGNOSIS OF NON-PROLIFERATIVE DIABETIC RETINOPATHY” (Johann Wolfgang Goethe-Universitat Frankfurt am Main, priority 2016, published 2020).
# Tested on: Ins2Akita mice
# Conditions: chronic treatment from 6 weeks to 12 months of age
compound,measurement,value
"O=C(NC12CC3CC(CC(C3)C1)C2)N[C@H]1CC[C@H](Oc2ccc(C(=O)O)cc2)CC1 (relative stereo) [t-AUCB, trans-4-[4-(3-adamantan-1-ylureido)cyclohexyloxy]-benzoic acid]",blood-retinal barrier integrity (FITC-BSA leakage),maintained
same,"hallmarks of diabetic retinopathy (pericyte loss, pericyte migration, acellular capillaries)",clearly attenuated
